# Test results from paper PMC4740303, “The Sigma-2 Receptor and Progesterone Receptor Membrane Component 1 are Different Binding Sites Derived From Independent Genes” (EBioMedicine, 2015).
# Columns and labels:
# S2R [1] = target: T1, S2R (Mus musculus, UniProt Q8VD00); assay: [^125I]-IAF photolabeling of the S2R in NSC34 cell membranes; format: binding; conditions: NSC34 membranes (control and PGRMC1 knockout); 5 μM
# T1 construct: Membranes (28 μg total proteins per reaction) prepared from NSC34 cells of controls, PGRMC1 knockout, or PGRMC1-3 × HA overexpression; endogenous in cells; host or cells: NSC34 cells (control, PGRMC1 knockout clones 38 and 207, PGRMC1-3xHA overexpressing)
# T1 sequence (Q8VD00 1-176): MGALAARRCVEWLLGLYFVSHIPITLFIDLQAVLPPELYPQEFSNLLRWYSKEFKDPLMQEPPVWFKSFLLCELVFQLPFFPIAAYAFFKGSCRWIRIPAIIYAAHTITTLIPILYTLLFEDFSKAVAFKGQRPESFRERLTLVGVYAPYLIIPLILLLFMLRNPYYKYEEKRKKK
# Experimental: Cell membrane preparation was performed following our established method ([Guo et al., 2012]). Briefly, cell pellets were suspended in PBS and sonicated on ice using the following settings: 5 sets (10 strokes/set) at duty cycle = 50, output control = 5. Cell homogenates were centrifuged at 8000 × g for 10 min, and the resulting supernatant was collected and subjected to ultracentrifugation at 100,000 × g for 1 h. The supernatant was discarded and the pellet was gently washed twice with ice-cold PBS. The pellet was then resuspended in PBS and sonicated (3 sets, 10 strokes/set at duty cycle = 50, output control = 5) to homogeneity. Protein concentration was then measured using the standard Bradford reagent (Sigma-Aldrich, St. Louis, MO).
# The synthesis of [^125I]-IAF and photolabeling was performed according to our published method ([Pal et al., 2007]). […] [^125I]-IAF was then added (final 1 nM) and incubated for another 40 min with gentle shaking in the dark. Photoactivation of [^125I]-IAF was performed by exposing the samples to a high-pressure AH-6 mercury lamp for 5 s and Laemmli buffer was immediately added to each sample. The samples were then resolved on a 16 × 18 cm SDS gel with 6–18% acrylamide gradient. The gel was dried and exposed to a phosphor screen for 24–48 h and autoradiograms were recorded using a Phosphoimager (Molecular Dynamics).
# S2R [2] = target: T1, S2R; conditions: ref Hellewell et al., 1994; cited from earlier work
# S2R [3] = target: T1, S2R; design: method as in Pal et al., 2007; conditions: earlier work of the group; ref Pal et al., 2007; cited from earlier work
smiles,measurement,setting,value
CC(C)=CCN1CC[C@]2(C)c3cc(O)ccc3C[C@H]1[C@H]2C [(+)-pentazocine],protection of [^125I]-IAF photolabeling of the S2R (~18 kDa band),S2R [1],protected by DTG but not by (+)-pentazocine
same,binding to the S2R,S2R [2],does not bind
same,protection of the [^125I]-IAF photolabeled S2R band,S2R [3],but not (+)-pentazocine
